Measurements from patent US20030216321A1.

How the values were obtained:
[1] = target: low density lipoprotein receptor-related protein (LRP-1), purified; assay: solid phase competition against ^125I-thrombin:PAI-1 on LRP-1-coated wells
[2] = target: glycoprotein 330 / LRP-2, purified; assay: solid phase competition against ^125I-thrombin:PAI-1 on LRP-2-coated wells
[3] = target: glycoprotein 330 / LRP-2, purified; assay: solid phase binding, homologous ligand displacement, single class of sites (program Ligand)
[4] = target: low density lipoprotein receptor-related protein (LRP-1), purified; assay: as above

Row | Ki [1] [nM] | Ki [2] [nM] | Kd [3] [nM] | Kd [4] [nM] | Substance
1 | > 700 | > 700 |  |  | human α-thrombin (from UniProt P00734 328-622) (enzyme)
2 |  |  | 13 | 3.3 | thrombin:PAI-1 complex (from UniProt P00734 328-622)
